From US20250283871A1, “COMPOSITIONS AND METHODS FOR MODULATING THE INTERACTION BETWEEN SS18-SSX FUSION ONCOPROTEIN AND NUCLEOSOMES” (Dana-Farber Cancer Institute, Inc., priority 2020, published 2025)

Columns and labels:
[1] = biological target: mammalian mononucleosomes (HEK293T, MNase digestion) read out by the histone H3 peptide H3K79me2 (human) (UniProt P68431); test: MBP-SSX1 78aa pull-down of HEK293T mononucleosomes, targeted quantitative histone mass spectrometry; replicate MM05_E01
[2] = biological target: mammalian mononucleosomes (HEK293T, MNase digestion) read out by the histone H3 peptide H3K56me0 (human) (UniProt P68431); test: as above
[3] = biological target: mammalian mononucleosomes (HEK293T, MNase digestion) read out by the histone H3 peptide H3K79me1 (human) (UniProt P68431); test: as above
[4] = biological target: HEK-293T mononucleosomes with histone H4(4to17)K5ac1K8ac1K12ac1me0 (mammalian (HEK-293T cells)) (UniProt P62805); test: MBP-SSX1 78aa pull-down of HEK293T mononucleosomes, targeted quantitative histone MS, replicate 2
[5] = biological target: HEK-293T mononucleosomes with histone H3K9me3S10ph1K14ac0 (mammalian (HEK-293T cells)) (UniProt P68431); test: as above
[6] = biological target: HEK-293T mononucleosomes with histone H4(4to17)K5ac1K16ac1me0 (mammalian (HEK-293T cells)) (UniProt P62805); test: as above
[7] = biological target: HEK-293T mononucleosomes with histone H3K4me2 (mammalian (HEK-293T cells)) (UniProt P68431); test: as above
[8] = biological target: HEK-293T mononucleosomes with histone H4(20to23)K20me1 (mammalian (HEK-293T cells)) (UniProt P62805); test: as above
[9] = biological target: HEK-293T mononucleosomes with histone H2A(4to11)K5ac1K9ac1 (mammalian (HEK-293T cells)) (UniProt P0C0S8); test: as above
[10] = biological target: HEK-293T mononucleosomes with histone H2AZ(1to19)K4ac1 (mammalian (HEK-293T cells)) (UniProt P0C0S5); test: as above
[11] = biological target: HEK-293T mononucleosomes with histone H3K4ac1 (mammalian (HEK-293T cells)) (UniProt P68431); test: as above
[12] = biological target: HEK-293T mononucleosomes with histone H4(4to17)K5ac1K8ac1K12ac1K16ac1me0 (mammalian (HEK-293T cells)) (UniProt P62805); test: as above
[13] = biological target: HEK-293T mononucleosomes with histone H4(20to23)K20me2 (mammalian (HEK-293T cells)) (UniProt P62805); test: as above
[14] = biological target: HEK-293T mononucleosomes with histone H4(20to23)K20me0 (mammalian (HEK-293T cells)) (UniProt P62805); test: as above
[15] = biological target: HEK-293T mononucleosomes with histone H4(4to17)K5ac1K8ac1me0 (mammalian (HEK-293T cells)) (UniProt P62805); test: as above
[16] = biological target: HEK-293T mononucleosomes with histone H4(4to17)K5ac1me0 (mammalian (HEK-293T cells)) (UniProt P62805); test: as above
[17] = biological target: HEK-293T mononucleosomes with histone H4(20to23)K20me3 (mammalian (HEK-293T cells)) (UniProt P62805); test: as above
[18] = biological target: HEK-293T mononucleosomes with histone H4(4to17)K8ac1K12ac1K16ac1me0 (mammalian (HEK-293T cells)) (UniProt P62805); test: as above
[19] = biological target: mammalian mononucleosomes (HEK293T, MNase digestion) read out by the histone H3 peptide H3K79me2 (human) (UniProt P68431); test: MBP-SSX1 78aa pull-down of HEK293T mononucleosomes, targeted quantitative histone mass spectrometry; replicate MM04_D01
[20] = biological target: mammalian mononucleosomes (HEK293T, MNase digestion) read out by the histone H3 peptide H3K56me0 (human) (UniProt P68431); test: as above
[21] = biological target: mammalian mononucleosomes (HEK293T, MNase digestion) read out by the histone H3 peptide H3K79me1 (human) (UniProt P68431); test: as above

- log2 histone peptide abundance (light/heavy) in the pull-down, normalised to the average of the pull-down input controls [1]: 0.083 log2 ratio
- log2 histone peptide abundance (light/heavy) in the pull-down, normalised to the average of the pull-down input controls [2]: 0.182 log2 ratio
- log2 histone peptide abundance (light/heavy) in the pull-down, normalised to the average of the pull-down input controls [3]: 0.203 log2 ratio
- log2 (Light/Heavy) ratio normalized to average of pull down input controls [4]: -0.387 log2
- log2 (Light/Heavy) ratio normalized to average of pull down input controls [5]: -0.24 log2
- log2 (Light/Heavy) ratio normalized to average of pull down input controls [6]: -0.272 log2
- log2 (Light/Heavy) ratio normalized to average of pull down input controls [7]: -0.348 log2
- log2 (Light/Heavy) ratio normalized to average of pull down input controls [8]: 0.195 log2
- log2 (Light/Heavy) ratio normalized to average of pull down input controls [9]: 0.032 log2
- log2 (Light/Heavy) ratio normalized to average of pull down input controls [10]: -0.894 log2
- log2 (Light/Heavy) ratio normalized to average of pull down input controls [11]: -0.255 log2
- log2 (Light/Heavy) ratio normalized to average of pull down input controls [12]: -0.629 log2
- log2 (Light/Heavy) ratio normalized to average of pull down input controls [13]: 0.047 log2
- log2 (Light/Heavy) ratio normalized to average of pull down input controls [14]: 0.14 log2
- log2 (Light/Heavy) ratio normalized to average of pull down input controls [15]: -0.448 log2
- log2 (Light/Heavy) ratio normalized to average of pull down input controls [16]: -0.162 log2
- log2 (Light/Heavy) ratio normalized to average of pull down input controls [17]: -0.131 log2
- log2 (Light/Heavy) ratio normalized to average of pull down input controls [18]: -0.309 log2
- log2 histone peptide abundance (light/heavy) in the pull-down, normalised to the average of the pull-down input controls [19]: 0.352 log2 ratio
- log2 histone peptide abundance (light/heavy) in the pull-down, normalised to the average of the pull-down input controls [20]: 0.742 log2 ratio
- log2 histone peptide abundance (light/heavy) in the pull-down, normalised to the average of the pull-down input controls [21]: 0.617 log2 ratio
Substance: MBP-SSX1 (78aa) (from UniProt P0AEX9 27-392)
